Measured values reported in PMC9569420 (Communications Biology, 2022).

Amino acid sequences for entries named in this document (tags omitted). A change or cut given only in a name is not applied to a line headed by its entry.
UniProt O00311: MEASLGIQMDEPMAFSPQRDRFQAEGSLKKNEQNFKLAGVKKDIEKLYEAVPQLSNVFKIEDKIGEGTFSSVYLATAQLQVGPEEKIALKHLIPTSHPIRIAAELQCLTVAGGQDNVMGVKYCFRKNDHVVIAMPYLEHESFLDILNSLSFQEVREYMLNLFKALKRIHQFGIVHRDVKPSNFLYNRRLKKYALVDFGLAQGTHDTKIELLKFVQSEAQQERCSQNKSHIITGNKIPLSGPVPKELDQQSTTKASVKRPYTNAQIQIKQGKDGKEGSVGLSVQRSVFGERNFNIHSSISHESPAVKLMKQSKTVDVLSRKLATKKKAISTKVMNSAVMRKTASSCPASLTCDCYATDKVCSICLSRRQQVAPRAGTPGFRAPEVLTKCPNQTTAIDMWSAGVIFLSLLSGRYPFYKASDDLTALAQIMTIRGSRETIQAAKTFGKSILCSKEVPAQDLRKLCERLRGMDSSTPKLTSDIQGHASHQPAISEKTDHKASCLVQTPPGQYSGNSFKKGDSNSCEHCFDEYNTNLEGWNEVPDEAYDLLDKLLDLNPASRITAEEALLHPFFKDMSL
UniProt Q00535, whole entry: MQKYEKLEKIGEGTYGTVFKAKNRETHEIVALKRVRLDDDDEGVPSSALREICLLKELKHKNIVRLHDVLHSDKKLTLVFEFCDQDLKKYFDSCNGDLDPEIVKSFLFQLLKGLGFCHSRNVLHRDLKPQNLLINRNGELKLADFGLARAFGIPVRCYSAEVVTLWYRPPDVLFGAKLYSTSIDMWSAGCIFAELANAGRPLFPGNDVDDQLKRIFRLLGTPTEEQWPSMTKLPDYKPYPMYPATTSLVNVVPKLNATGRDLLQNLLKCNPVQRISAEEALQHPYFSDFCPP
UniProt P19784, whole entry: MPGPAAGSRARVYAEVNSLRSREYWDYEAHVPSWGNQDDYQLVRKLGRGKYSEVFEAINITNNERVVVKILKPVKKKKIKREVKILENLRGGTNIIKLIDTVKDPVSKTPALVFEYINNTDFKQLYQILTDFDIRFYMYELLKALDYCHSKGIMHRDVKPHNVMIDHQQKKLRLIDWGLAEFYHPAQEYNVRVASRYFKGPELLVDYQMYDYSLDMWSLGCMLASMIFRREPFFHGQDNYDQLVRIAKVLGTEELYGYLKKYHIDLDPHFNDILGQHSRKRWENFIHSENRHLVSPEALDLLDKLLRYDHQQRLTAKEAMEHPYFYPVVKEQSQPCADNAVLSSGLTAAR
UniProt P27361, whole entry: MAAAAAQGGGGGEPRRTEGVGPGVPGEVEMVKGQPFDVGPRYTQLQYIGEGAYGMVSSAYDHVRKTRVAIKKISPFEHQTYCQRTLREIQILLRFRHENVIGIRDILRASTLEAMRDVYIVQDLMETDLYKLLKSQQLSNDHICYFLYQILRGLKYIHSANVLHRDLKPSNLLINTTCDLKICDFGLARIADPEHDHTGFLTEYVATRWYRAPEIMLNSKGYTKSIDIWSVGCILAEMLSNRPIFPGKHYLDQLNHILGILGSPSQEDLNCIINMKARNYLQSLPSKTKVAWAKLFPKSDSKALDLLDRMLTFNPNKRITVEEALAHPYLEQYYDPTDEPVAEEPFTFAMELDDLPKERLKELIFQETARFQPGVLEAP
UniProt P25098: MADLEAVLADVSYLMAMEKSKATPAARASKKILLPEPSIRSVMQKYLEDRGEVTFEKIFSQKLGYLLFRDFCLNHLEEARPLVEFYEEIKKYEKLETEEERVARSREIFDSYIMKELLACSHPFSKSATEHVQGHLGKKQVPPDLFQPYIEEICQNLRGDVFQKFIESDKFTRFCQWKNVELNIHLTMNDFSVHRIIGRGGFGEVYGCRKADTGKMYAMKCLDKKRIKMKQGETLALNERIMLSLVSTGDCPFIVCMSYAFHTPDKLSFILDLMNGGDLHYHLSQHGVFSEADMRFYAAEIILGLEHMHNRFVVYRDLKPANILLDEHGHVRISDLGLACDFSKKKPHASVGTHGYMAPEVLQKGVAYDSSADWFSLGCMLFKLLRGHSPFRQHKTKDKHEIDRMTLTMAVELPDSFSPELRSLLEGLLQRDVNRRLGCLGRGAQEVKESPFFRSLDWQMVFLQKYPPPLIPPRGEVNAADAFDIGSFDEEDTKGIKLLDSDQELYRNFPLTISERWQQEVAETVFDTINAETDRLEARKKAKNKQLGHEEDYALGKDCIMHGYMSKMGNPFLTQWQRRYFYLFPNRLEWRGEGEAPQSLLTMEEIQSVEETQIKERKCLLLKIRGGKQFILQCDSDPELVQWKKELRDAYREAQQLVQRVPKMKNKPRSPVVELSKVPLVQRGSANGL
UniProt P06239: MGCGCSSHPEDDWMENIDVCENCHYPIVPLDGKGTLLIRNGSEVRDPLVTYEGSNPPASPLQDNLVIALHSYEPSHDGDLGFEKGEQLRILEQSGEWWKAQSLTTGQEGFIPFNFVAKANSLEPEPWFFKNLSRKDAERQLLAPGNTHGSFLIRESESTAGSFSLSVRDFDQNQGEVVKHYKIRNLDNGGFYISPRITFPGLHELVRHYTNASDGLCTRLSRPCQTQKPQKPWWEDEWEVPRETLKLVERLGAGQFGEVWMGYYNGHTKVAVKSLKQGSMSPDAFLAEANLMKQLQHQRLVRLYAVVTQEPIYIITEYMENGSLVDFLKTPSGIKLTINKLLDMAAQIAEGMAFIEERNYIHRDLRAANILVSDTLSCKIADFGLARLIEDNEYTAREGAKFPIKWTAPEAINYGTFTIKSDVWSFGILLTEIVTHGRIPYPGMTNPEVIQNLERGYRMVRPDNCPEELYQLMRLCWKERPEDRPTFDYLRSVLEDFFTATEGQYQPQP
UniProt Q9P0L2: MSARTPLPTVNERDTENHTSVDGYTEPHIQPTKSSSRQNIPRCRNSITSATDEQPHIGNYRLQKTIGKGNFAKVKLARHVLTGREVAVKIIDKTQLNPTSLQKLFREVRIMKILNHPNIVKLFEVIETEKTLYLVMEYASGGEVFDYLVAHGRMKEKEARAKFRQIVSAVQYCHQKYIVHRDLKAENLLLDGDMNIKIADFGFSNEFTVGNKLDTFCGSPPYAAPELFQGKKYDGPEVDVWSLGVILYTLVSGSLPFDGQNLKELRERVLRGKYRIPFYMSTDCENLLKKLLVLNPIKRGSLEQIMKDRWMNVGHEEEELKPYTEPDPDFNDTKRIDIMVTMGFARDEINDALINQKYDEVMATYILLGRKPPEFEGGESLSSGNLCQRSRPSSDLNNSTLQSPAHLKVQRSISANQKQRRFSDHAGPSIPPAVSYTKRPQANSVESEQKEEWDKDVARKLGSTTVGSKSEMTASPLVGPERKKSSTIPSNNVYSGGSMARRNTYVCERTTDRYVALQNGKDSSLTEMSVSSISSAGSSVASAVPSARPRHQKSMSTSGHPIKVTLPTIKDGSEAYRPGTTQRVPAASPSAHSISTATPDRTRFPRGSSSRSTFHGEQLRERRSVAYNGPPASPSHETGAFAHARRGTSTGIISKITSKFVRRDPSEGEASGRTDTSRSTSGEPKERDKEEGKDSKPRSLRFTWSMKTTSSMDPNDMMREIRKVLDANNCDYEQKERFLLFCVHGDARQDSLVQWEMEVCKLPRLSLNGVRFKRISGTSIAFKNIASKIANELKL
UniProt Q96RG2: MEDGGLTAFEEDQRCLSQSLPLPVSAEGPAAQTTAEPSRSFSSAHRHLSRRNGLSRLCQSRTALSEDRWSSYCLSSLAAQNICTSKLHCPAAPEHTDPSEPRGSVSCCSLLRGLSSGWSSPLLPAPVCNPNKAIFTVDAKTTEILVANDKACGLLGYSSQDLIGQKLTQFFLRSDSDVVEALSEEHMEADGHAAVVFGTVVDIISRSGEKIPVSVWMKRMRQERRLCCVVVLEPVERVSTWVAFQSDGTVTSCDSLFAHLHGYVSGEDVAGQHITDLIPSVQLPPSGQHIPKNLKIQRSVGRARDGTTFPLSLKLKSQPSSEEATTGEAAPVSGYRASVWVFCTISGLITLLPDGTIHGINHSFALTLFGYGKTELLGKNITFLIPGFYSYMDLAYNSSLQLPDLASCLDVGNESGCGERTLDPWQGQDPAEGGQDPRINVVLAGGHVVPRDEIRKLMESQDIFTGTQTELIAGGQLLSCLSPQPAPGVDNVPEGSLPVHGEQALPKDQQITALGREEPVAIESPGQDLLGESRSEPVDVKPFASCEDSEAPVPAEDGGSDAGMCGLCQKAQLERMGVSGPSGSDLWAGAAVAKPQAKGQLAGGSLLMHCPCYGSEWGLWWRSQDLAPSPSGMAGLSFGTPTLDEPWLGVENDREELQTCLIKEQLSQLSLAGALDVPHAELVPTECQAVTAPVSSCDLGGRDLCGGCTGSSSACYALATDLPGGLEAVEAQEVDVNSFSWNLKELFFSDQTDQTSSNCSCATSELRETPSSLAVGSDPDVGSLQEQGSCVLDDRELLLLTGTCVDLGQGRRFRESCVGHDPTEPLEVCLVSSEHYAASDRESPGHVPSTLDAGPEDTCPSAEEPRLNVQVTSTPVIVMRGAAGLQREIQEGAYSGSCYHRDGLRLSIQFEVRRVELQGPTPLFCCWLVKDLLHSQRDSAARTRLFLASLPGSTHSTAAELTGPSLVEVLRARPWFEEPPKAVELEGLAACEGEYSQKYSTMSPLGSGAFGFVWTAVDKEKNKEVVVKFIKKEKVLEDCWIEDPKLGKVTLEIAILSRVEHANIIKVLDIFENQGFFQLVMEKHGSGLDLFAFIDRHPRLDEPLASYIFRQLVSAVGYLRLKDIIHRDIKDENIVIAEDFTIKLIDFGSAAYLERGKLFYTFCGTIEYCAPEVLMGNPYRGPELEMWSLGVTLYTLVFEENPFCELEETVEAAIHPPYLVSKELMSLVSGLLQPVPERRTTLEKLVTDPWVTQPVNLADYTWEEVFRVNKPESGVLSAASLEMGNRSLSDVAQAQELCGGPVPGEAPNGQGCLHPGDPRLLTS
UniProt O75716, whole entry: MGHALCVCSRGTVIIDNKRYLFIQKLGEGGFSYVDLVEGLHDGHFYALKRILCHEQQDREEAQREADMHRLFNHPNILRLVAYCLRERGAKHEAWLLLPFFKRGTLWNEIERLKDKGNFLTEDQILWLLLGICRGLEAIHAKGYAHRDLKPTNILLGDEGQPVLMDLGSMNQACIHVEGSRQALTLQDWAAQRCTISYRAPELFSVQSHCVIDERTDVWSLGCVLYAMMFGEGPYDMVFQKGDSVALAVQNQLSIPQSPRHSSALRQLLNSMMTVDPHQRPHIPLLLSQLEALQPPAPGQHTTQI
UniProt P54646: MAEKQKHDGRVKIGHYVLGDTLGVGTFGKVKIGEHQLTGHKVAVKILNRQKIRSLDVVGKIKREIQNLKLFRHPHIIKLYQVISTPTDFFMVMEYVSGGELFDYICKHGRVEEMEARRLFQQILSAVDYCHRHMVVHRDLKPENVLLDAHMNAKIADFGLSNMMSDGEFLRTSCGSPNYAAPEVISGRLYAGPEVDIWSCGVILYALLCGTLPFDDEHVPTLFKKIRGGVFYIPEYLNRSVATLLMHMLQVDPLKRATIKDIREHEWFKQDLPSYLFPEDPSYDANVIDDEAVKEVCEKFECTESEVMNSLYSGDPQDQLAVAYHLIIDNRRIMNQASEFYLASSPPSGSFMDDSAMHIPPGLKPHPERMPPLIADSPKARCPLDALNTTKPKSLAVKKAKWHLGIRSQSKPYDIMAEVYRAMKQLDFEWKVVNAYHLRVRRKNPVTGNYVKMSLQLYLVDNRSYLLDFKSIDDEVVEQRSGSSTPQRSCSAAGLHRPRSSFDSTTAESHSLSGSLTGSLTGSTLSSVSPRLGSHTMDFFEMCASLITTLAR
UniProt P19525: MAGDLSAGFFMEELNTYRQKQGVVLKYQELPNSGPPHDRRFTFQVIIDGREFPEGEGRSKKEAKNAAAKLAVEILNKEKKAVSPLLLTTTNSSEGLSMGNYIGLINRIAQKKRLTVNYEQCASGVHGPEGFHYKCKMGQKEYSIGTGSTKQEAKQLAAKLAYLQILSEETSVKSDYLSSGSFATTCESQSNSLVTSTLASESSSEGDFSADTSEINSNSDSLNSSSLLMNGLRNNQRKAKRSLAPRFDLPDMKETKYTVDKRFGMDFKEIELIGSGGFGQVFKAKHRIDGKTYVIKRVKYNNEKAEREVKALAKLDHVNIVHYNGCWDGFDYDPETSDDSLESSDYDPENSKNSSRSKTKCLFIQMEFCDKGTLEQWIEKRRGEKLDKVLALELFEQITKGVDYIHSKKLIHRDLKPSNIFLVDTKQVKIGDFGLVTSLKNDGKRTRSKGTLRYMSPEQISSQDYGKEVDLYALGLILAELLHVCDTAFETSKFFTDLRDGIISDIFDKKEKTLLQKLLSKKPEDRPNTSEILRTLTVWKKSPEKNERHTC

What was measured:
Conditions in all cases: 10µM
ALK3/BMPR1A = biological target: T1, ALK3/BMPR1A (Homo sapiens, UniProt P36894); assay: HotSpot kinase assay; assay type: biochemical
T1 construct: purchased Reaction Biology Corporation

ARAF = biological target: T2, ARAF (Homo sapiens, UniProt P10398); assay: HotSpot kinase assay; assay type: biochemical
T2 construct: purchased Reaction Biology Corporation

ARK5/NUAK1 = biological target: T3, ARK5/NUAK1 (Homo sapiens, UniProt O60285); assay: HotSpot kinase assay; assay type: biochemical
T3 construct: purchased Reaction Biology Corporation

CDC7/DBF4 = biological target: T4, CDC7/DBF4 (Homo sapiens, UniProt O00311); assay: HotSpot kinase assay; assay type: biochemical
T4 construct: purchased Reaction Biology Corporation

CDK5/p35 = biological target: T5, CDK5/p35 (Homo sapiens, UniProt Q00535); assay: HotSpot kinase assay; assay type: biochemical
T5 construct: purchased Reaction Biology Corporation

CK1g3 = biological target: T6, CK1g3 (Homo sapiens, UniProt Q9Y6M4); assay: HotSpot kinase assay; assay type: biochemical
T6 construct: purchased Reaction Biology Corporation

CK2a2 = biological target: T7, CK2a2 (Homo sapiens, UniProt P19784); assay: HotSpot kinase assay; assay type: biochemical
T7 construct: purchased Reaction Biology Corporation

CLK3 = biological target: T8, CLK3 (Homo sapiens, UniProt P49761); assay: HotSpot kinase assay; assay type: biochemical
T8 construct: purchased Reaction Biology Corporation

EPHA2 = biological target: T9, EPHA2 (Homo sapiens, UniProt P29317); assay: HotSpot kinase assay; assay type: biochemical
T9 construct: purchased Reaction Biology Corporation

ERK1 = biological target: T10, ERK1 (Homo sapiens, UniProt P27361); assay: HotSpot kinase assay; assay type: biochemical
T10 construct: purchased Reaction Biology Corporation

ERK5/MAPK7 = biological target: T11, ERK5/MAPK7 (Homo sapiens, UniProt Q13164); assay: HotSpot kinase assay; assay type: biochemical
T11 construct: purchased Reaction Biology Corporation

FAK/PTK2 = biological target: T12, FAK/PTK2 (Homo sapiens, UniProt Q05397); assay: HotSpot kinase assay; assay type: biochemical
T12 construct: purchased Reaction Biology Corporation

GRK2 = biological target: T13, GRK2 (Homo sapiens, UniProt P25098); assay type: biochemical
T13 construct: purchased Reaction Biology Corporation

GSK3b = biological target: T14, GSK3b (Homo sapiens, UniProt P49841); assay type: biochemical
T14 construct: purchased Reaction Biology Corporation

IRAK4 = biological target: T15, IRAK4 (Homo sapiens, UniProt Q9NWZ3); assay: HotSpot kinase assay; assay type: biochemical
T15 construct: purchased Reaction Biology Corporation

JAK1 = biological target: T16, JAK1 (Homo sapiens, UniProt P23458); assay: HotSpot kinase assay; assay type: biochemical
T16 construct: purchased Reaction Biology Corporation

JNK3 = biological target: T17, JNK3 (Homo sapiens, UniProt P53779); assay: HotSpot kinase assay; assay type: biochemical
T17 construct: purchased Reaction Biology Corporation

LCK = biological target: T18, LCK (Homo sapiens, UniProt P06239); assay: HotSpot kinase assay; assay type: biochemical
T18 construct: purchased Reaction Biology Corporation

LRRK2 = biological target: T19, LRRK2 (Homo sapiens, UniProt Q5S007); assay: HotSpot kinase assay; assay type: biochemical
T19 construct: purchased Reaction Biology Corporation

MARK1 = biological target: T20, MARK1 (Homo sapiens, UniProt Q9P0L2); assay: HotSpot kinase assay; assay type: biochemical
T20 construct: purchased Reaction Biology Corporation

MLCK/MYLK = biological target: T21, MLCK/MYLK (Homo sapiens, UniProt Q15746); assay: HotSpot kinase assay; assay type: biochemical
T21 construct: purchased Reaction Biology Corporation

MRCKb/CDC42BPB = biological target: T22, MRCKb/CDC42BPB (Homo sapiens, UniProt Q9Y5S2); assay: HotSpot kinase assay; assay type: biochemical
T22 construct: purchased Reaction Biology Corporation

MUSK = biological target: T23, MUSK (Homo sapiens, UniProt O15146); assay: HotSpot kinase assay; assay type: biochemical
T23 construct: purchased Reaction Biology Corporation

PASK = biological target: T24, PASK (Homo sapiens, UniProt Q96RG2); assay: HotSpot kinase assay; assay type: biochemical
T24 construct: purchased Reaction Biology Corporation

PKAcg = biological target: T25, PKAcg (Homo sapiens, UniProt P22612); assay: HotSpot kinase assay; assay type: biochemical
T25 construct: purchased Reaction Biology Corporation

PKCeta = biological target: T26, PKCeta (Homo sapiens, UniProt P24723); assay: HotSpot kinase assay; assay type: biochemical
T26 construct: purchased Reaction Biology Corporation

PKCmu/PRKD1 = biological target: T27, PKCmu/PRKD1 (Homo sapiens, UniProt Q15139); assay: HotSpot kinase assay; assay type: biochemical
T27 construct: purchased Reaction Biology Corporation

STK16 = biological target: T28, STK16 (Homo sapiens, UniProt O75716); assay: HotSpot kinase assay; assay type: biochemical
T28 construct: purchased Reaction Biology Corporation

TESK1 = biological target: T29, TESK1 (Homo sapiens, UniProt Q15569); assay: HotSpot kinase assay; assay type: biochemical
T29 construct: purchased Reaction Biology Corporation

TNK1 = biological target: T30, TNK1 (Homo sapiens, UniProt Q13470); assay: HotSpot kinase assay; assay type: biochemical
T30 construct: purchased Reaction Biology Corporation

VRK1 = biological target: T31, VRK1 (Homo sapiens, UniProt Q99986); assay: HotSpot kinase assay; assay type: biochemical
T31 construct: purchased Reaction Biology Corporation

YES/YES1 = biological target: T32, YES/YES1 (Homo sapiens, UniProt P07947); assay: HotSpot kinase assay; assay type: biochemical
T32 construct: purchased Reaction Biology Corporation

AMPK (A2/B1/G2) = biological target: T33, AMPK (A2/B1/G2) (Homo sapiens, UniProt P54646); assay: HotSpot kinase assay; assay type: biochemical
T33 construct: purchased Reaction Biology Corporation

DNA-PK = biological target: T34, DNA-PK (Homo sapiens, UniProt P78527); assay: HotSpot kinase assay; assay type: biochemical
T34 construct: purchased Reaction Biology Corporation

EIF2AK2 = biological target: T35, EIF2AK2 (Homo sapiens, UniProt P19525); assay: HotSpot kinase assay; assay type: biochemical
T35 construct: purchased Reaction Biology Corporation

EIF2AK4 = biological target: T36, EIF2AK4 (Homo sapiens, UniProt Q9P2K8); assay: HotSpot kinase assay; assay type: biochemical
T36 construct: purchased Reaction Biology Corporation

CDK9/cyclin K = CDK9/cyclin K (Homo sapiens, UniProt P50750)

`CO[C@@H]1[C@H](N(C)C(=O)CCC(=O)NCc2cn(CCCS(=O)(=O)O)nn2)C[C@H]2O[C@]1(C)n1c3ccccc3c3c4c(c5c6ccccc6n2c5c31)C(=O)NC4` [CIMSS] was tested, and the “% Enzyme Activity (relative to DMSO controls)” value (ALK3/BMPR1A) was 79.43%, the “% Enzyme Activity (relative to DMSO controls)” value (ARAF) was 152.51% and the “% Enzyme Activity (relative to DMSO controls)” value (ARK5/NUAK1) was 1.45%. The “% Enzyme Activity (relative to DMSO controls)” value (CDC7/DBF4) was 3.26%, the “% Enzyme Activity (relative to DMSO controls)” value (CDK5/p35) was 8.70% and the “% Enzyme Activity (relative to DMSO controls)” value (CK1g3) was 95.03%. For the same compound, the “% Enzyme Activity (relative to DMSO controls)” value (CK2a2) was 43.00%, the “% Enzyme Activity (relative to DMSO controls)” value (CLK3) was 34.93% and the “% Enzyme Activity (relative to DMSO controls)” value (EPHA2) was 31.99%. The “% Enzyme Activity (relative to DMSO controls)” value (ERK1) was 90.38%, the “% Enzyme Activity (relative to DMSO controls)” value (ERK5/MAPK7) was 81.71% and the “% Enzyme Activity (relative to DMSO controls)” value (FAK/PTK2) was 13.59%. For the same compound, the “% Enzyme Activity (relative to DMSO controls)” value (GRK2) was 28.58%, the “% Enzyme Activity (relative to DMSO controls)” value (GSK3b) was 2.83% and the “% Enzyme Activity (relative to DMSO controls)” value (IRAK4) was 6.41%. The “% Enzyme Activity (relative to DMSO controls)” value (JAK1) was -0.15% and -0.64%, the “% Enzyme Activity (relative to DMSO controls)” value (JNK3) was 23.39% and the “% Enzyme Activity (relative to DMSO controls)” value (LCK) was 2.99%. For the same compound, the “% Enzyme Activity (relative to DMSO controls)” value (LRRK2) was 1.00%, the “% Enzyme Activity (relative to DMSO controls)” value (MARK1) was 1.16% and the “% Enzyme Activity (relative to DMSO controls)” value (MLCK/MYLK) was 14.41%. The “% Enzyme Activity (relative to DMSO controls)” value (MRCKb/CDC42BPB) was 73.82%, the “% Enzyme Activity (relative to DMSO controls)” value (MUSK) was 2.02% and the “% Enzyme Activity (relative to DMSO controls)” value (PASK) was 40.24%. For the same compound, the “% Enzyme Activity (relative to DMSO controls)” value (PKAcg) was 2.04%, the “% Enzyme Activity (relative to DMSO controls)” value (PKCeta) was 1.78% and 0.42% and the “% Enzyme Activity (relative to DMSO controls)” value (PKCmu/PRKD1) was 28.32%. For the same compound, the “% Enzyme Activity (relative to DMSO controls)” value (STK16) was 9.79%, the “% Enzyme Activity (relative to DMSO controls)” value (TESK1) was 82.57% and the “% Enzyme Activity (relative to DMSO controls)” value (TNK1) was 2.88%. For the same compound, the “% Enzyme Activity (relative to DMSO controls)” value (VRK1) was 79.87%, the “% Enzyme Activity (relative to DMSO controls)” value (YES/YES1) was 1.32% and the “% Enzyme Activity (relative to DMSO controls)” value (AMPK (A2/B1/G2)) was 0.66% and 0.09%. For the same compound, the “% Enzyme Activity (relative to DMSO controls)” value (DNA-PK) was 95.76%, the “% Enzyme Activity (relative to DMSO controls)” value (EIF2AK2) was 9.34% and the “% Enzyme Activity (relative to DMSO controls)” value (EIF2AK4) was 9.39%. For the same compound, the “% Enzyme Activity (relative to DMSO controls)” value (CDK9/cyclin K) was 11.18%.

Where “and” joins values, the source holds several entries; their conditions need not be identical. Equal values may be shown once.
